We go through three molecules from ChEMBL document CHEMBL4627396 (J Med Chem, 2020).

Protein sequences, listed by entry. Tags and fused reporters are not part of them. Lines headed by an entry give the natural chain unless they say otherwise; changes in a name come on top.
UniProt Q8IU85: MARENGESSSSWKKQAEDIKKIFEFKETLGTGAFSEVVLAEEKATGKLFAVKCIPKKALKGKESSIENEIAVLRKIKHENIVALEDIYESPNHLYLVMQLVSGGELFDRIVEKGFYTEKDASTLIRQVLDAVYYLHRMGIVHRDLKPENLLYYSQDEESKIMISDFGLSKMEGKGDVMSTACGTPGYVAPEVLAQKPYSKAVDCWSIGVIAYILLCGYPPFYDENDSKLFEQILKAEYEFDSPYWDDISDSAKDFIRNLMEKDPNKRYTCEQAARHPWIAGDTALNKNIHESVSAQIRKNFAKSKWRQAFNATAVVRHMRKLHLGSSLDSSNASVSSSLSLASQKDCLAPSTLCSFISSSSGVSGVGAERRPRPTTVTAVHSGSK
UniProt O43293: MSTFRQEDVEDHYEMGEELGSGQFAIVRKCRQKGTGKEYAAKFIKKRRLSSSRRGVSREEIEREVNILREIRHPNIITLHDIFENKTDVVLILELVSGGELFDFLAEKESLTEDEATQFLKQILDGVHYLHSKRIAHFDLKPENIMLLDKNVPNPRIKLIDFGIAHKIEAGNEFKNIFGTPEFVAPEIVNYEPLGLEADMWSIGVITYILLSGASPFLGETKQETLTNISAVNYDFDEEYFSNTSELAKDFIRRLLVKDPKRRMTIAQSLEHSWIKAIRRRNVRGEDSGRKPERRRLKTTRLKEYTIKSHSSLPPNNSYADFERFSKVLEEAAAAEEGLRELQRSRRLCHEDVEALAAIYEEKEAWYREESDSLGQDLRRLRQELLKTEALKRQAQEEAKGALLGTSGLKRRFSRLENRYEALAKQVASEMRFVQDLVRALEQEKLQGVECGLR

As a reminder, the ΔTm is the shift of the melting midpoint relative to a reference.

The target of assay [1] is Calcium/calmodulin-dependent protein kinase type 1D (Homo sapiens) (UniProt Q8IU85).
The target in assay [2] is Death-associated protein kinase 3 (Homo sapiens) (UniProt O43293). The settings on record: 10 uM.
The target in assay [3] is T1, Calcium/calmodulin-dependent protein kinase type IV (Homo sapiens) (UniProt Q16566).
T1 sequence (whole entry): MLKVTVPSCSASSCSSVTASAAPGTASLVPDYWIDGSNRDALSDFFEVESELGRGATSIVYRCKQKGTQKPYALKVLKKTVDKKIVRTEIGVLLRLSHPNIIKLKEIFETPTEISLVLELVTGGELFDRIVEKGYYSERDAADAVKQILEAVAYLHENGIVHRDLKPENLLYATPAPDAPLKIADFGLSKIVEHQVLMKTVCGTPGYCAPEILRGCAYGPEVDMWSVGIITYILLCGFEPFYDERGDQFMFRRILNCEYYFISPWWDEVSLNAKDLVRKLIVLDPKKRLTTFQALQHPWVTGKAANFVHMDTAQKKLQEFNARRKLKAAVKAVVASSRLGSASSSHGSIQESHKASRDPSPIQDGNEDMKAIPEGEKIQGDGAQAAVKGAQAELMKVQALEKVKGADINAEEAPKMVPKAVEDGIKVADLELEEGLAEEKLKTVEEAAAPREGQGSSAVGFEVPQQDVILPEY
The settings on record: 10 uM.

Consider `CNC(=O)c1cnc(NCCN)nc1Nc1cccc(C(F)(F)F)c1`, for which the ΔTm is 0.12 °C in assay [1] and 1.36 °C in assay [2].
For the molecule `CNCCN(C)c1ncc(C(N)=O)c(Nc2cccc(C(F)(F)F)c2)n1`, the ΔTm in assay [1] is 2.43 °C; in assay [3], 3.36 °C.
Regarding `CN(C)CCN(C)c1ncc(C(N)=O)c(Nc2cccc(C(F)(F)F)c2)n1`, the ΔTm in assay [1] amounted to 4.68 °C; in assay [3], 2.21 °C; in assay [2] it was 3.45 °C.
